Reference: patent US20050142135A1, “Agents and methods for modulating interactions between gonadotropin hormones and receptors” (University of Kentucky Research Foundation, priority 2003, published 2005)

By UniProt entry, the sequences of proteins in these tests, tags left out. Residues count along the entry.
UniProt P23945, 18-695, stated change not applied: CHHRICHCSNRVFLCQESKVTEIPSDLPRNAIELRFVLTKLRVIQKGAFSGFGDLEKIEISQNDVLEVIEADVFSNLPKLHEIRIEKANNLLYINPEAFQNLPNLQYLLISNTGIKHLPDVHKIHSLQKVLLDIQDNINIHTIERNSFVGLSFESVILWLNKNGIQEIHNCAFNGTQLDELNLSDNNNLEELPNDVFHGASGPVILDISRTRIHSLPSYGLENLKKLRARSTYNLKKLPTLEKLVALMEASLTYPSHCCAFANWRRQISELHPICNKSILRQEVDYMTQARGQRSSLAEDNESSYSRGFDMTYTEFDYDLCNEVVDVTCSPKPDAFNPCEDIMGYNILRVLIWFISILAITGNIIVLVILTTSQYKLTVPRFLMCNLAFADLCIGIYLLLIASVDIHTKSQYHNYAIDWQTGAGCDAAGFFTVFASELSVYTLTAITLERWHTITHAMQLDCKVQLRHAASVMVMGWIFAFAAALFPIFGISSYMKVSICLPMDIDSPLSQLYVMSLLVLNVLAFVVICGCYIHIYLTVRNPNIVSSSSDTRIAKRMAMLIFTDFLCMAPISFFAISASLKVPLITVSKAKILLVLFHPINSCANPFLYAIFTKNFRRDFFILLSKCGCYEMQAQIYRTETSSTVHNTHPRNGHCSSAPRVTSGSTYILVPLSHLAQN

Columns and labels:
Assay in all cases: 125I-FSH displacement / Scatchard
Settings in all cases: ligand
[1] = molecular target: FSHR I^584 deletion mutant (human) (UniProt P23945)
[2] = molecular target: FSHR I^584Y mutant (human) (UniProt P23945)
[3] = molecular target: FSHR K^590R mutant (human) (UniProt P23945)
[4] = molecular target: FSHR K^590D mutant (human) (UniProt P23945)
[5] = molecular target: FSHR K^590E mutant (human) (UniProt P23945)
[6] = molecular target: FSHR I^584C mutant (human) (UniProt P23945)
[7] = molecular target: FSHR K^590P mutant (human) (UniProt P23945)
[8] = molecular target: FSHR K^590A mutant (human) (UniProt P23945)
[9] = molecular target: FSHR I^584S mutant (human) (UniProt P23945)
[10] = molecular target: FSHR K^590C mutant (human) (UniProt P23945)
[11] = molecular target: FSHR I^584Q mutant (human) (UniProt P23945)
[12] = molecular target: FSHR I^584P mutant (human) (UniProt P23945)
[13] = molecular target: FSHR I^584E mutant (human) (UniProt P23945)
[14] = molecular target: FSHR K^590 deletion mutant (human) (UniProt P23945)
[15] = molecular target: FSHR K^590Y mutant (human) (UniProt P23945)

Substance: human FSH (from UniProt P01215 25-116; P01225 19-129)
- Kd [1]: 0.8 nM
- Kd [2]: 1.2 nM
- Kd [3]: 2.9 nM
- Kd [4]: 1.9 nM
- Kd [5]: 2.9 nM
- Kd [6]: 1.8 nM
- Kd [7]: 1.9 nM
- Kd [8]: 6.9 nM
- Kd [9]: 1 nM
- Kd [10]: 5.9 nM
- Kd [11]: 0.8 nM
- Kd [12]: 0.7 nM
- Kd [13]: 1.1 nM
- Kd [14]: 1.6 nM
- Kd [15]: 28.7 nM
